# Screening results deposited in PubChem by National Center for Advancing Translational Sciences (NCATS).
# TDP1 block – inhibitors of human tyrosyl-DNA phosphodiesterase TDP1 | Q9NUW8 | recombinant TDP1, AlphaScreen DNA substrate cleavage | Potency, µM (highest dose often 130 µM), inactives show at the top dose activity change, negative = inhibition, actives largely listed as inhibitors | 350,000 compounds, 0.28% hits | AID 485290; also: potency is read from the fitted curve at half-maximal effect; % is scaled to controls: 0 for no effect and ±100 for the full control effect; nearly all actives have a fitted effect of over 40% in size
#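 Recombinant human Tdp1 (E. coli-expressed, 1 nM final) preincubated with compounds 15 min at room temperature, then 5'-biotin/3'-phosphotyrosine-FITC DNA substrate (15 nM final) added for 5 min. AlphaScreen beads (10 ug/ml final) added 10 min; cleavage lowers signal.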
# uPA generation – inhibitors of cell surface uPA generation; cell surface uPA generation assay, qHTS; Potency, µM (doses to about 38.3 µM), for inactives: at the top dose activity change, negative = inhibition, most hits filed as inhibitors; 330,000 compounds, 0.31% hits; AID 540303; active = well fitted inhibition curve with a large enough effect; inconclusive = small, poorly fitted or top-dose-only effect; inactive = no such curve, though single readings can be large or run the other way; tested in mouse RAW 264.7 cells; also: potency is read from the fitted curve at half-maximal effect; % is scaled to controls: 0 for no effect and ±100 for the full control effect; nearly all actives have a fitted effect of over 55% in size
# TDP1 cell CPT – DT40-hTDP1 cell growth loss with CPT | chicken DT40 Tdp1-/-;hTDP1 cells + 20 nM CPT, ATP luminescence, 48 h | 420,000 compounds, 12% hits | Potency, µM (doses to about 46.2 µM), inactives show at the top dose activity change, negative = growth inhibition, actives largely listed as inhibitors; also: potency is read from the fitted curve at half-maximal effect; % is scaled to controls: 0 for no effect and ±100 for the full control effect; nearly all actives have a fitted effect of over 55% in size
#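 Cell growth measured by CellTiter-Glo luminescence after a minimum 48 h, 37 C compound exposure with 20 nM CPT in Tdp1-knockout DT40 cells stably expressing hTDP1, seeded 400/well; qHTS titration format.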
# miR-21 FLuc – miR-21 reporter, rising signal | HeLa miR-21 FLuc reporter, luciferase, 48 h | Potency, µM (top dose mostly 38.3 µM), inactives show at the top dose reporter change, positive = more light | 340,000 tested, under 10 active | AID 2288; active = well fitted rising curve with a large enough effect; inconclusive = small, poorly fitted or top-dose-only effect; inactive = no such curve, though single readings can be large or run the other way;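 further: % of control where 0% means no effect; miR-21 action dims this reporter so a rising signal means less miR-21 action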
#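 HeLa cells stably expressing CMV-driven firefly luciferase with a downstream miR-21 binding sequence, endogenously expressing miR-21, were treated with titrations (up to about 40uM final) for 48 hours at 37 degree Celsius. Luciferase luminescence was read after lysis.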
# TDP1 cell noCPT – qHTS for Inhibitors of human tyrosyl-DNA phosphodiesterase 1 (TDP1): qHTS in cells in absence of CPT | DT40 Tdp1-/- hTDP1 cells, no CPT, ATP luminescence, 48 h | Potency, µM (highest dose often 46.2 µM), for inactives: top-dose activity change, negative = growth inhibition, most hits filed as inhibitors | 420,000 compounds, 15% hits | AID 686978, 2013; also: potency is read from the fitted curve at half-maximal effect; % is scaled to controls: 0 for no effect and ±100 for the full control effect; nearly all actives have a fitted effect of over 55% in size
#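 Stably hTDP1-transfected Tdp1-null chicken DT40 cells were treated with library compounds minus camptothecin and grown for at least 48 hr at 37 °C, after which cellular ATP was quantified by luminescence.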
# * hit, by the source's call; ? = inconclusive; . = not tested or not shown; [ ] = remark or other dose. Rows were chosen to be rich in hits. Some 16% of all compounds tested hit in one or more screens of this group. Unless noted, calls follow the shape of the dose curve; as a rule, active = well fitted curve in the direction sought with a large enough effect; inconclusive = small, poorly fitted or top-dose-only effect, or another doubt; inactive = no such curve, though single readings can be large; an effect the other way counts as inactive or inconclusive.
# Abbreviations – A = TDP1 block; B = uPA generation; C = TDP1 cell CPT; D = miR-21 FLuc; E = TDP1 cell noCPT
SMILES: COC(=O)CCCC1=CC2=C(c3ccccc3)C(=O)C(C)(OC(=O)C3CCCC3)C(=O)C2=CN1Cc1ccccc1 (configuration not stated)
  A: 6%[12.3 µM]; B: .; C: .; D: .; E: .

SMILES: COc1ccc2c(c1)c1nc3n(c(=O)c1n2CC(=O)Nc1ccccc1)CCCS3
  A: -8%; B: -11%; C: 2%; D: 0%; E: -11%

SMILES: Cc1nc(N2CCCCC2)sc1C(=O)c1ccc(SCCO)c([N+](=O)[O-])c1
  A: 8%; B: 6%; C: ?; D: 3%; E: 18µM*

SMILES: CCOC(=O)N1CCN(CC(O)COC2CC(C)CCC2C(C)C)CC1 (configuration not stated)
  A: -7%; B: 18%; C: ?; D: -2%; E: ?

SMILES: CC(NCC(O)COc1ccc(Br)cc1)c1ccccc1 (configuration not stated)
  A: 2%; B: -3%; C: ?; D: 5%; E: ?

SMILES: CC(NCC(O)COC1CCC(C(C)(C)C)CC1)c1ccccc1 (configuration not stated)
  A: 7%; B: -2%; C: ?; D: ?; E: 21µM*

SMILES: CC1CCN(CC(O)COC2CC(C)CCC2C(C)C)CC1 (configuration not stated)
  A: 5%; B: ?; C: ?; D: 6%; E: 16µM*

SMILES: CC1CCC(C(C)C)C(OCC(O)CNC(C)c2ccccc2)C1 (configuration not stated)
  A: -8%; B: -4%; C: ?; D: 23%; E: 15µM*

SMILES: O=C1CSC(c2ccccc2[N+](=O)[O-])N1c1ccccc1 (configuration not stated)
  A: 2%; B: 1%; C: 4%; D: 1%; E: 5%

SMILES: CC(C)C(=O)N1CCN(c2ccc(NC(=O)c3cccs3)cc2Cl)CC1
  A: 5%; B: -15%; C: 23µM*; D: 18%; E: 13µM*

SMILES: CC(C)C(=O)N1CCN(c2ccc(NC(=O)c3cccs3)cc2)CC1
  A: 0%; B: -3%; C: ?; D: -8%; E: ?

SMILES: CC(=O)N1CCN(c2ccc(NC(=O)c3ccc4c(c3)OCCO4)cc2Cl)CC1
  A: 1%; B: -7%; C: ?; D: 4%; E: ?

SMILES: CN1CCN(c2ccc([N+](=O)[O-])cc2NC(=O)c2cccs2)CC1
  A: 4%; B: ?; C: ?; D: -6%; E: 23µM*

SMILES: CN1CCN(c2ccc([N+](=O)[O-])cc2NC(=O)c2ccco2)CC1
  A: 2%; B: -1%; C: -25%; D: 0%; E: -19%

SMILES: O=C(Cc1ccc(Cl)cc1)Nc1ccc(N2CCN(C(=O)c3ccco3)CC2)c(Cl)c1
  A: 4%; B: -10%; C: 15µM*; D: 18%; E: 23µM*

SMILES: CC(C)C(=O)N1CCN(c2ccc(NC(=O)c3ccc4c(c3)OCCO4)cc2Cl)CC1
  A: 2%; B: .; C: ?; D: -1%; E: 23µM*

SMILES: O=C(COc1ccc2ccc(=O)oc2c1)Nc1cc([N+](=O)[O-])ccc1F
  A: -8%; B: 4%; C: -17%; D: .; E: 2%

SMILES: Cc1ccc(N2C(=O)CC(NCC3CCCO3)C2=O)cc1 (configuration not stated)
  A: 7%; B: 6%; C: 1%; D: -2%; E: 4%

SMILES: O=C(Nc1ccc(N2CCN(C(=O)c3ccco3)CC2)c(Cl)c1)c1cccs1
  A: 6%; B: -13%; C: 21µM*; D: 16%; E: 21µM*

SMILES: CCn1c2ccccc2n2c(=O)c(=O)n(CC(=O)N3CCN(c4ccccc4OC)CC3)nc12
  A: -1%; B: .; C: .; D: -2%; E: .

SMILES: O=C1c2ccccc2NC(c2cn[nH]c2-c2ccccc2)N1O (configuration not stated)
  A: 3%; B: -2%; C: -5%; D: -12%; E: ?

SMILES: O=C1c2ccccc2NC(c2cn[nH]c2-c2ccc(Cl)cc2)N1O (configuration not stated)
  A: 10%; B: -12%; C: 16µM*; D: 12%; E: 16µM*

SMILES: CC(=O)NC12CC3CC(C1)CC(C(=O)N(C)CC(=O)Nc1ccccc1Cl)(C3)C2
  A: 4%[0.505 µM]; B: 3%; C: 14%; D: .; E: -25%

SMILES: CN(C)c1ccc(S(=O)(=O)N2CCCCC2)cc1NC(=O)C1CSC2(C)CCC(=O)N12 (configuration not stated)
  A: 3%; B: -16%; C: -25%; D: .; E: 26µM*

SMILES: CC12CCC(=O)N1C(C(=O)Nc1ccc(S(=O)(=O)N3CCCCC3)cc1)CS2 (configuration not stated)
  A: .; B: -16%; C: -13%; D: .; E: -4%

# Limited to miR-21 FLuc, TDP1 cell CPT and TDP1 cell noCPT (4 entries from above):
Structure	miR-21 FLuc	TDP1 cell CPT	TDP1 cell noCPT
O=C(Cc1ccc(Cl)cc1)Nc1ccc(N2CCN(C(=O)c3ccco3)CC2)c(Cl)c1	18%	15µM*	23µM*
O=C1c2ccccc2NC(c2cn[nH]c2-c2ccc(Cl)cc2)N1O (configuration not stated)	12%	16µM*	16µM*
COc1ccc2c(c1)c1nc3n(c(=O)c1n2CC(=O)Nc1ccccc1)CCCS3	0%	2%	-11%
CC1CCC(C(C)C)C(OCC(O)CNC(C)c2ccccc2)C1 (configuration not stated)	23%	?	15µM*

# The listing continues.
# Abbreviations – A = TDP1 block; B = uPA generation; C = TDP1 cell CPT; D = miR-21 FLuc; E = TDP1 cell noCPT
SMILES: CC1CC(C)CN(S(=O)(=O)c2ccc(NC(=O)C3CSC4(C)CCC(=O)N34)cc2)C1 (configuration not stated)
  A: .; B: 5%; C: 23µM*; D: .; E: ?

SMILES: Cc1[nH]n(-c2nc(-c3cccc([N+](=O)[O-])c3)cs2)c(=O)c1C
  A: 10%; B: 3%; C: ?; D: -40%; E: 21µM*

SMILES: Cc1c(Nc2nc(-c3cccc([N+](=O)[O-])c3)cs2)c(=O)n(-c2ccccc2)n1C
  A: 4%; B: 6%; C: -5%; D: -3%; E: -15%

SMILES: COc1ccc(NS(=O)(=O)c2cccc(C(=O)NCc3ccccc3CN3CCOCC3)c2)cc1
  A: .; B: 15%; C: -30%; D: .; E: ?

SMILES: COc1ccc(C(c2nnnn2CC2CCCO2)N2CCC(C(N)=O)CC2)cc1 (configuration not stated)
  A: 0%; B: 4%; C: 0%; D: 4%; E: -23%

SMILES: CCCCC(c1nnnn1CC1CCCO1)N1CCN(Cc2ccccc2)CC1 (configuration not stated)
  A: 2%; B: 3%; C: -14%; D: -8%; E: -12%

SMILES: CCCCC(c1nnnn1CC1CCCO1)N1CCN(c2cccc(C)c2C)CC1 (configuration not stated)
  A: 2%; B: 5%; C: ?; D: 2%; E: 16µM*

SMILES: COc1ccc(C(c2nnnn2CC2CCCO2)N2CCN(c3cccc(C)c3C)CC2)cc1 (configuration not stated)
  A: 4%; B: 4%; C: ?; D: 8%; E: 18µM*

SMILES: Cc1cccc(OC(C)C(=O)Nc2ncn[nH]2)c1 (configuration not stated)
  A: -1%; B: .; C: 7%; D: -2%; E: 6%

SMILES: Cc1ccc(-c2sc(C(=O)Nc3ccc(Br)cc3)cc2CC(=O)O)cc1
  A: 4%; B: .; C: 2%; D: -2%; E: -1%

SMILES: CC(C)c1ccc(-n2cccc2/C=C2/C(=N)N3C=CSC3=NC2=O)cc1
  A: 8%; B: -4%; C: ?; D: -2%; E: ?

SMILES: COc1ccccc1OCCOc1ccc(/C=C2/C(=N)N3OC(C)=CC3=NC2=O)cc1OC
  A: 4%; B: 2%; C: ?; D: 2%; E: ?

SMILES: CC1=CC2=NC(=O)/C(=C\c3cccn3CCOc3ccccc3C)C(=N)N2O1
  A: 5%; B: -3%; C: 21µM*; D: 4%; E: ?

SMILES: Cc1ccccc1Cn1cccc1/C=C1/C(=N)N2C=CSC2=NC1=O
  A: 2%; B: -3%; C: 18µM*; D: 7%; E: 29µM*

SMILES: COc1ccccc1C(=O)NCCn1cc(SCC(=O)Nc2nnc(C)s2)c2ccccc21
  A: 5%; B: -4%; C: ?; D: 8%; E: -28%

SMILES: COc1ccc2c(c1OC)C(Cc1ccccc1)N1CCc3cc4c(cc3C1C2)OCO4 (configuration not stated)
  A: 25%; B: .; C: 6µM*; D: .; E: 12µM*
